Results taken from patent US6727244B2, “Mammalian metabolites of a tachykinin receptor antagonist” (Merck & Co., Inc., priority 2000, dated 2004).

Chains of the proteins cited; added tags and fusions are not shown.
UniProt P25103, whole entry: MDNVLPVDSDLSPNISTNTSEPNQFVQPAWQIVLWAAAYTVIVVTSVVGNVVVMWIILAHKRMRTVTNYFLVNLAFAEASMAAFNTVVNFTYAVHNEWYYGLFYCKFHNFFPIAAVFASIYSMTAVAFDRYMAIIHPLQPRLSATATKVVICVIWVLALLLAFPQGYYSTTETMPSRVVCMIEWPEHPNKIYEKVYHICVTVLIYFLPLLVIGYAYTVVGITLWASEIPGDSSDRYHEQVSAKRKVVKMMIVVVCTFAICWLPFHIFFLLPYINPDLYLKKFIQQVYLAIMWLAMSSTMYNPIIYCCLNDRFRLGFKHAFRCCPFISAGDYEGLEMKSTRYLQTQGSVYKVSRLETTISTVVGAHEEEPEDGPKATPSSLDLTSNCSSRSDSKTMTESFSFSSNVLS

Molecular target: human NK1 receptor (Homo sapiens, UniProt P25103)
Test: human NK1 receptor binding assay (125I-substance P, COS or CHO cells)
Details: read-out: IC50 value for human NK1 receptor binding activity; tested form: mixture of the two C-5 hydroxy epimers
Method: To express the cloned human neurokinin-1 receptor (NKIR) transiently in COS, the cDNA for the human NKIR was cloned into the expression vector pCDM9 which was derived from pCDM8 (INVITROGEN) by inserting the ampicillin resistance gene (nucleotide 1973 to 2964 from BLUESCRIPT SK+) into the Sac II site. Transfection of 20 ug of the plasmid DNA into 10 million COS cells was achieved by electroporation in 800 ul of transfection buffer (135 mM NaCl, 1.2 mM CaCl2, 1.2 mM MgCl2, 2.4 mM K2HPO4, 0.6 mM KH2PO4, 10 mM glucose, 10 mM HEPES pH 7.4) at 260 V and 950 uF using the IBI GENEZAPPER (IBI, New Haven, Conn.). […]
The binding assay of human NK1R expressed in either COS or CHO cells is based on the use of ^125I-substance P (^125I-SP, from DU PONT, Boston, Mass.) as a radioactively labeled ligand which competes with unlabeled substance P or any other ligand for binding to the human NK1R. […] The bound radioactivity was separated from unbound radioactivity by GF/C filter (BRANDEL, Gaithersburg, Md.) which was pre-wetted with 0.1 % polyethylenimine. The filter was washed with 3 ml of wash buffer (50 mM Tris pH 7.5, 5 mM MnCl2, 150 mM NaCl) three times and its radioactivity was determined by gamma counter.

**Q.** How did the IC50 turn out when `C[C@@H](O[C@H]1OCC(=O)NC1(O)c1ccc(F)cc1)c1cc(C(F)(F)F)cc(C(F)(F)F)c1` (stereo partly shown) was run?
**A.** The IC50 was 28 nM.
